# Experimental data published in patent publication US20240219333A1, “IMPEDANCE-BASED INTESTINAL ORGANOID EVALUATION SYSTEM” (KOREA RESEARCH INSTITUTE OF CHEMICAL TECHNOLOGY, priority 2020, published 2024).
# Tests used:
# Assay type in all cases: cell-based
# [1] = tested on: human intestinal organoid; assay: Immunostaining analysis of conjugated protein (ZO-1) in intestinal organoid; conditions: mature HIO (IL-2) vs control HIO, FIG. 4d
# Protocol: (§1) The formed human intestinal organoid (immature control, control HIO) was maintained by subculture once every 14 days with exchanging the medium once every 2 days. Additionally, the mature intestinal organoid (mature HIO) was cultured by subculture at least twice with treating with 1 ng/ml of IL-2.
# (§2) For qRT-PCR analysis, human pluripotent stem cells, definitive endoderm cells, hindgut cells, control intestinal organoids, and mature intestinal organoids were collected, total RNA was extracted using a RNeasy kit, and cDNA was synthesized using Superscript IV First-Strand Synthesis System. Then, the analysis was performed using the primers targeting intestinal cell-specific marker genes and 7500 Fast Real-Time PCR System. Human small intestine total RNA (HSI) was purchased and used as a positive control. Morphological changes according to intestinal organoid maturation (FIG. 4b, upper panel) were investigated. As a result, it was confirmed that the size of the intestinal organoid (FIG. 4b, lower left panel) and the number of budding structures of the intestinal organoid (FIG. 4b, lower right panel) were increased in the mature intestinal organoid (Mature HIO) treated with IL-2 compared to the control intestinal organoid (Control HIO). […] Gene expression of conjugated proteins (ZO-1, OCLN, CLDN1, CLDN3, and CLDN5) involved in membrane function was analyzed. […]
# [2] = tested on: human intestinal organoid; assay: qRT-PCR of mature intestinal marker and conjugated protein genes in intestinal organoid; conditions: mature HIO (IL-2) vs control HIO
# Protocol: as §1, §2
# [3] = tested on: human intestinal organoid; assay: Morphological changes according to intestinal organoid maturation; conditions: mature HIO treated with 1 ng/ml IL-2 vs control HIO
# Protocol: as §1, §2
substance,measurement,setting,value
IL-2,conjugated protein (ZO-1) expression,[1],highly expressed
same,expression level of the mature intestinal marker gene,"[2]; human small intestine (HSI) RNA as positive control, FIG. 4c",increased similarly to that of the human small intestine
same,"gene expression of conjugated proteins (ZO-1, OCLN, CLDN1, CLDN3, and CLDN5)","[2]; level corresponding to HSI, FIG. 4e",highly expressed
same,size of the intestinal organoid,[3]; FIG. 4b lower left,increased
same,number of budding structures of the intestinal organoid,[3]; FIG. 4b lower right,increased
